# In patent US20120264825A1, “Amino Acid Perhydrates, Process for Their Preparation and Uses thereof” (priority 2009, published 2012):
# Conditions: start of peak; 2 degree/min under nitrogen flow
# Method: TG and DSC studies were performed on Thermobalance, TG50 and differential scanning calorimeter, DSC 822 (Mettler, Toledo) in the range 25-200° C. under nitrogen flow at a heating rate of 2 degree/min.
substance,measurement,value
Glycine Hydrogen Peroxide Sesquisolvate C2H5NO2.1.5(H2O2) [Example 3],"exothermic decomposition peak, start (DSC)",80 °C
